Values quoted from earlier work in patent US20120202819A1, “COMBINATION THERAPY USING A BETA 3 […] RECEPTOR AGONISTS AND AN […] AGENT” (Merck Sharp & Dohme Corporation, priority 2009, published 2012).

Chains of the proteins cited; added tags and fusions are not shown. Lines headed by an entry give the natural chain unless they say otherwise; changes in a name come on top.
UniProt P11229: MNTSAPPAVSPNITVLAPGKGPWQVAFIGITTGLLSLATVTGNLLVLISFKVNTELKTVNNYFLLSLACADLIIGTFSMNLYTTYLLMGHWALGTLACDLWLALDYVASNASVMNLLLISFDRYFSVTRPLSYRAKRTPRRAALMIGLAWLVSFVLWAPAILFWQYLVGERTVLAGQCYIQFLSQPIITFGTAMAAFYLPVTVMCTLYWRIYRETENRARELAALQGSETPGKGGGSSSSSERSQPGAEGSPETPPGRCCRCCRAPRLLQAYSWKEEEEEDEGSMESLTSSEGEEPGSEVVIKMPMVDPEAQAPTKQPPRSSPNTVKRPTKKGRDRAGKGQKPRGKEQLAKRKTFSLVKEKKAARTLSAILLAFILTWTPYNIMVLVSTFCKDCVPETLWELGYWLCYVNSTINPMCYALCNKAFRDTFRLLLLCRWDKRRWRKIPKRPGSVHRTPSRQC

Biological target: muscarinic receptor M1 (Homo sapiens, UniProt P11229)
Conditions: read-out: Ki (nM) M1; Ohtake et al.; cited from earlier work

Compound: NC(=O)C(c1ccccc1)(c1ccccc1)[C@@H]1CCN(CCc2ccc3c(c2)CCO3)C1 [Darifenacin, (S)-2-[1-[2-(2,3-dihydrobenzofuran-5-yl)ethyl]pyrrolidin-3-yl]-2,2-diphenyl-acetamide]
- Ki: 31 ± 2.6 nM
